Reference: patent US7737138B2 (priority 2004, dated 2010)

Chains of the proteins cited; added tags and fusions are not shown. Residues count along the entry.
UniProt P10636, 612-707 limits assumed: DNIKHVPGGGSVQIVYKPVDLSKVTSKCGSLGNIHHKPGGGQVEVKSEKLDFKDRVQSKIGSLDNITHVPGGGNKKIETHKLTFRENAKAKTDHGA

Target: full-length tau (T40) / 12 kD PHF-core tau fragment in fibroblast cells (3T6) (Homo sapiens, UniProt P10636)
Test: Cell-based assay for establishing EC50 (generation of the 12 kD fragment)
Conditions: concentration at which there is a 50% inhibition of generation of the 12 kD fragment; 3T6 cells; tested form: Cl

## CCN(CC)c1cc(C)c2nc3c(C)cc(N(CC)CC)cc3[s+]c2c1
  EC50: 4 nM
